In US9447050B2, “Solid forms of curcumin” (THE TRANSLATIONAL GENOMICS RESEARCH INSTITUTE, priority 2011, dated 2016):
Where two headings read alike, the source gives them in different places.

How the values were obtained:
Assay type in all cases: physicochemical
[1] = Dynamic vapor sorption (DVS); conditions: for XRPD post the DVS experiment (form change): after DVS; for water uptake (DVS): sorption 20-90% RH
Description: Approximately, 10 mg of sample was placed into a wire-mesh vapor sorption balance pan and loaded into a DVS-1 dynamic vapor sorption balance by Surface Measurement Systems. The sample was subjected to a ramping profile from 20-90% relative humidity (RH) at 10% increments, maintaining the sample at each step until a stable weight was achieved (99.5% step completion). After completion of the sorption cycle, the sample was then dried using the same procedure, but all the way down to 0% RH and finally taken back to the starting point of 20% RH. The weight change during the sorption/desorption cycles was then plotted, allowing for the hygroscopic nature of the sample to be determined.

[2] = Stability tests (80° C.; 40° C./75% RH; ambient light) read by XRPD
Description: XRPD analysis was carried out on a Siemens D5000, scanning the samples between 3 and 30 or 50 °2θ. For samples <100 mg, about 5 mg of sample was gently compressed onto a glass slide which fitted into the sample holder. For samples >100 mg; ca. 100 mg of sample was gently compressed into a plastic sample holder, so that the sample surface was smooth and just above the level of the sample holder. The sample was then loaded into the diffractometer running in reflection mode and analyzed, using the following experimental conditions—Raw Data Origin: Siemens-binary V2 (.RAW); Start Position [°2Th.]: 3.0000; End Position [°2Th.]: 30.000 or 50.000; Step Size [°2Th.]: 0.0200; Scan Step Time: [s] 0.8; Scan Type: Continuous; Offset [°2Th.]: 0.0000; Divergence Slit Type: Fixed; Divergence Slit Size [°]: 2.0000; Specimen Length [mm]: various; Receiving Slit Size [mm]: 0.2000; Measurement Temperature [° C.]: 20.00; Anode Material: Cu; K-Alpha1 [A]: 1.54060; K-Alpha2 [A]: 1.54443; K-Beta [A]: 1.39225; K-A2/K-A1 Ratio: 0.50000 (nominal); Generator Settings 40 mA, 40 kV; Diffractometer Type: D5000; Diffractometer Number: 0; Goniometer Radius [mm]: 217.50; Incident Beam Monochromator: No; Diffracted Beam Monochromator: Graphite; Spinning: No.

Slurrying in water = conditions: for solid form on slurrying in water (XRPD): water slurry
[3] = Intrinsic dissolution experiments; conditions: for % Dissolved: 1% solutol, 37° C.
Description: Approximately, 80-180 mg of each form was compressed into discs (or added as powders) by placing the material into a die (diameter: 13 mm) and compressing the die under 5 tons of pressure in a hydraulic press for about 2 minutes. The dissolution instrument, Sotax AT7 conformed to EP2 and USP2 in which paddles were used to stir the media. Each form was tested in 1% solutol solution (samples in 100% water had concentrations below the limit of detection of the system, therefore could not be quantified), in the stationary disc mode (i.e., discs were added at time=0 seconds and allowed to sink to the bottom of the media). Approximately 1 ml aliquots of media were extracted from the dissolution vessels at times 1, 5, 10, 15, 30, 60, 120, 240 minutes and 24 hours, and tested for API concentration by HPLC-UV. Dissolution curves were plotted and from the first 5 or 6 points on the curves the intrinsic dissolution rate curves were calculated. All tests were carried out at 37° C. and a paddle speed of 150 rpm.

[4] = Thermodynamic solubility studies

Substance: curcumin-2-aminobenzimidazole
- hygroscopicity (DVS) [1]: not hygroscopic
- XRPD post the DVS experiment (form change) [1]: no degradation or transformation had occurred
- water retained on the desorption cycle ([1]; desorption cycle): 0.2%
- water uptake (DVS) [1]: 0.8%
- 40° C./75% RH stability test (XRPD) [2]: no signs of form transformation, disproportionation, degradation or loss in crystallinity
- 80° C. stability test (XRPD) [2]: no signs of form transformation, disproportionation, degradation or loss in crystallinity
- ambient light stability test (XRPD) [2]: no signs of form transformation, disproportionation, degradation or loss in crystallinity
- solid form on slurrying in water (XRPD) (Slurrying in water): no signs of form transformation, disproportionation, degradation or loss in crystallinity
- % Dissolved ([3]; timepoint 5 min): 0.869%
- % Dissolved ([3]; timepoint 10 min): 0.949%
- % Dissolved ([3]; timepoint 15 min): 0.994%
- % Dissolved ([3]; timepoint 30 min): 1.367%
- % Dissolved ([3]; timepoint 60 min): 2.123%
- % Dissolved ([3]; timepoint 120 min): 2.545%
- % Dissolved ([3]; timepoint 240 min): 3.616%
- % Dissolved ([3]; timepoint 1440 min): 13.936%

Substance: curcumin-nicotinamide
- hygroscopicity (DVS) [1]: moderately/highly hygroscopic
- water uptake (DVS) between 20-70% RH [1]: about 5%
- XRPD post the DVS experiment (form change) [1]: no degradation or transformation had occurred
- hygroscopicity (DVS) ([1]; listed as curcumin-nicotinamide co-crystal): moderately hygroscopic
- water uptake (DVS) [1]: about 13%
- 40° C./75% RH stability test (XRPD) [2]: no signs of form transformation, disproportionation, degradation
- 80° C. stability test (XRPD) [2]: no signs of form transformation, disproportionation, degradation
- ambient light stability test (XRPD) [2]: no signs of form transformation, disproportionation, degradation
- solid form on slurrying in water (XRPD) (Slurrying in water): a loss in crystallinity was observed as the time points increased
- intrinsic dissolution rate relative to curcumin-2-aminobenzimidazole co-crystal ([3]; 1% solutol solution): approximately two times greater
- % Dissolved ([3]; timepoint 5 min): 0.66%
- % Dissolved ([3]; timepoint 10 min): 0.906%
- % Dissolved ([3]; timepoint 15 min): 1.119%
- % Dissolved ([3]; timepoint 30 min): 1.705%
- % Dissolved ([3]; timepoint 60 min): 2.642%
- % Dissolved ([3]; timepoint 120 min): 3.510%
- % Dissolved ([3]; timepoint 240 min): 4.719%
- % Dissolved ([3]; timepoint 1440 min): 14.094%

Substance: curcumin-L-lysine
- water uptake (DVS) between 20-70% RH [1]: 6.81%
- XRPD post the DVS experiment (form change) [1]: remains amorphous
- water uptake (DVS) [1]: 21.16%
- solid form after thermodynamic solubility studies (XRPD) [4]: still predominantly amorphous
- thermodynamic solubility ([4]; 1% solutol): appeared to increase slightly
- thermodynamic solubility ([4]; various pH media): very low
- thermodynamic solubility ([4]; various pH media, listed as curcumin-L-lysine co-crystal): very poor solubility
- 40° C./75% RH stability test (XRPD) [2]: remained amorphous
- 80° C. stability test (XRPD) [2]: remained amorphous
- ambient light stability test (XRPD) [2]: remained amorphous
- pH of water slurry (Slurrying in water; after 1 hour): 9.53
- pH of water slurry (Slurrying in water; after 48 hours): 9.41
- solid form on slurrying in water (XRPD) (Slurrying in water): remaining amorphous
- state of co-crystal in dissolution medium (XRPD of wafer remainder) ([3]; after 24 hours): dissociated in the dissolution medium
